This is a sample that favours compounds with a hit; in the whole collection about 0.62% have one here.
Epigenetic reg: regulators of epigenetic silencing causing reporter derepression in mouse cells | murine LDR cells, GFP reporter derepression, 30 h | Potency, µM (series often up to 53.9 µM), for inactives: top-dose GFP activation, most hits filed as activators | 0.2% of 280,000 active; further: potency means the concentration at half of the fitted maximal effect; % of control where 0% means no effect; nearly all actives have a fitted effect of over 60% in size
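Derepression of a silenced CMV-GFP reporter in murine LDR cells is scored by enumerating GFP-positive cells with a laser-scanning microplate cytometer after 30 hours of treatment at 37 C.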
IL-2 act: activators of IL-2 | IL-2 activation reporter assay, cell-based qHTS; stimulated with anti-CD3/CD4/CD28 beads; in transgenic mouse T cells | 0.065% of 360,000 active | activation, % (series mostly up to about 46 µM); in the data active means activation above about 50%; inconclusive means mostly about 30% to 49%; further: 0% is about no effect
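EGFP and DsRed fluorescence is measured by plate cytometry in unstimulated transgenic mouse T cells exposed to compound for 60 minutes, then stimulated 18 hours at 37 degrees C with anti-CD3/anti-CD4 beads plus anti-CD28.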
p53 reactivator: re-activators of mutant p53. H1299 p53-A138V BP100-luciferase reporter, luminescence, 24 h. Potency, µM (series often up to 92.2 µM), for inactives: at the highest dose activity change, positive = activation, actives largely listed as activators. 0.063% of 320,000 active; further: potency means the concentration at half of the fitted maximal effect; % of control where 0% means no effect; nearly all actives have a fitted effect of over 45% in size
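p53-null H1299 cells stably carrying temperature-sensitive p53-A138V and a BP100-luciferase reporter were pinned with compounds (4-point, 1:5 series) and held 24 hrs at 37 deg C. Luminescence was read 10 min after detection reagent.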
PINK1 modulator: modulators of PINK1 expression; PINK1 immunofluorescence, high-content cytometry, 24 h; Potency, µM (titrated, usually from 76.6 µM), inactives show at the top dose activation (PINK1 increase), most hits filed as activators; 0.2% of 410,000 active; AID 624263; active means well fitted activation curve with a large enough effect; inconclusive means small, poorly fitted or top-dose-only effect; cell line not stated here; further: potency means the concentration at half of the fitted maximal effect; % of control where 0% means no effect; nearly all actives have a fitted effect of over 65% in size
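Measures PINK1 amount and localization on or inside mitochondria by immunofluorescence. Stable cells get compounds at 5 concentrations for 24 hours before fixation and staining; CCCP controls included.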
uPA surface inh: blocks generation of uPA at the cell surface; cell surface uPA generation assay, qHTS; Potency, µM (top dose mostly 38.3 µM), for the others: at the top dose activity change, negative = inhibition, usual class: inhibitors; 0.31% of 330,000 active; AID 540303; active means well fitted inhibition curve with a large enough effect; inconclusive means small, poorly fitted or top-dose-only effect; inactive means no such curve, though single readings can be large or run the other way; tested in mouse RAW 264.7 cells; further: potency means the concentration at half of the fitted maximal effect; on the % scale 0 is the no-effect control and ±100 the full control effect; nearly all actives have a fitted effect of over 55% in size
miR-21 reporter: raises the signal of a miR-21 reporter | HeLa miR-21 FLuc reporter, luciferase, 48 h | 340,000 tested, under 10 active | Potency, µM (titrated, usually from 38.3 µM), inactives show at the highest dose reporter change, positive = more light; active = well fitted rising curve with a large enough effect; inconclusive = small, poorly fitted or top-dose-only effect; inactive = no such curve, though single readings can be large or run the other way;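 further: % of control where 0% means no effect; miR-21 action dims this reporter so a rising signal means less miR-21 action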
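Using DMEM plus 10% FBS, HeLa miR-21-FLuc cells are incubated with test compounds (final up to about 40uM) for 48 hours; firefly luciferase signal is then imaged following reagent-mediated lysis.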
An asterisk follows results filed as active; ? = inconclusive; / = not tested or not shown; [ ] = dose if it differs, or a comment. Unless noted, the call rests on the fitted dose curve; in most records, active means well fitted curve in the direction sought with a large enough effect; inconclusive means small, poorly fitted or top-dose-only effect, or another doubt; inactive means no such curve, though single readings can be large; an effect the other way counts as inactive or inconclusive.

SMILES | Epigenetic reg | IL-2 act | p53 reactivator | PINK1 modulator | uPA surface inh | miR-21 reporter
COc1ccc(OC)c(CN2CCCC(n3cc(C(=O)N4CCCCC4)nn3)C2)c1 (stereo not drawn) | / | / | / | 1% | / | /
COc1cc2nc(CCNCc3ccccc3)nc(NC3CCN(C)CC3)c2cc1OC | / | / | / | -1% | / | /
COc1cc(C(=O)OCC#N)ccc1OCc1c(C)noc1C | 2% | -1 | 4% | 8% | 11µM* | 22%
COc1cc(C(=O)NCC(c2ccccc2)N(C)C)ccc1OCc1c(C)noc1C (stereo not drawn) | / | 1 | -3% | 8% | 7.9µM* | /
COc1ccccc1CNC(=O)c1ccc(OCc2c(C)noc2C)c(OC)c1 | -1% | -1 | / | -2% | -5% | -8%
O=C(c1ccc(NC(=S)Nc2ccc(Cl)c(Cl)c2)cc1)N1CCCC1 | 0% | -3 | -2% | 28µM* | -2% | 0%
Cc1cn2cc(CNC(=O)CN3Cc4ccccc4OC(c4ccccc4F)C3)nc2s1 (stereo not drawn) | / | / | / | -1% | / | /
COC(=O)c1ccc(CN2CCOc3ccc(CN4CCC(O)(c5cccnc5)CC4)cc3C2)cc1 | / | / | / | 0% | / | /
O=S1(=O)CCN(Cc2ccccc2C(F)(F)F)CC1 | 0% | -1 | -4% | 0% | -1% | 3%
Cc1ccccc1CN1CCN(Cc2ccccc2C(F)(F)F)CC1 | 1% | -3 | 2% | 10µM* | -3% | -4%
Cn1cc(CN2CCC(C3(c4ccccn4)NC(=O)N(CC4CCCO4)C3=O)CC2)c2ccccc21 (stereo not drawn) | / | / | / | -1% | / | /
Clc1cccc(Cl)c1CSc1cc2c(nn1)-c1ccccc1CC2 | 2% | 51* | ? | 3% | 2% | -3%
Cc1c(C(=O)N2CCCCC2)sc2ncnc(NCCN(C)C)c12 | / | / | / | 1% | / | /
C=CCNC(=O)c1ccc2c3n(nc2c1)-c1ccc(Cl)cc1CO3 | / | -3 | / | 0% | 5µM* | /
O=C(NCCO)c1ccc2c3n(nc2c1)-c1ccccc1CO3 | -5% | 0 | ? | 0% | 2.8µM* | -23%
O=C(NCC1CC1)c1ccc2c3n(nc2c1)-c1ccccc1CO3 | -2% | 1 | 13% | 1% | 1.4µM* | 3%
CS(=O)(=O)Nc1cc(C(=O)N2CCNC(=O)C2)c2c(c1)ncn2CCc1ccccc1 | / | / | / | 1% | / | /
Cc1ccc(CNc2nc(CN3CCN(C=O)CC3)nc3ccccc23)o1 | / | / | / | -1% | / | /
COc1ccc2oc(C(=O)Nc3nc4ccccc4[nH]3)c(C)c2c1 | ? | 2 | ? | 4% | 3.5µM* | -55%
Cc1[nH]c2ccccc2c1C(c1c[nH]c2ccccc12)c1c(C)[nH]c2ccccc12 | / | / | / | 0% | / | /
Cc1ncsc1CCC(=O)N1CCCC(c2nc(-c3ccncc3)ncc2-c2ccccc2)C1 (stereo not drawn) | / | / | / | -1% | / | /
COc1ccc2[nH]c(-c3ccc(C)cc3)cc(=O)c2c1 | 4% | 0 | ? | 2% | 2.8µM* | 22%
COc1cccc2sc(Nc3nc(-c4ccccn4)cs3)nc12 | -2% | / | 25µM* | / | / | -56%
Cc1ccc2nc(-c3ccc(NC(=O)COC(=O)c4ccc([N+](=O)[O-])o4)cc3)sc2c1 | 6% | -1 | 3.2µM* | -1% | -4% | -18%
Cc1ccc2nc(-c3ccc(NC(=O)COC(=O)c4ccc(Br)o4)cc3)sc2c1 | 0% | 3 | / | 5% | -7% | -30%

Reprinted from the part before: 4 entries; new compounds follow.
SMILES | Epigenetic reg | IL-2 act | p53 reactivator | PINK1 modulator | uPA surface inh | miR-21 reporter
COc1ccc2[nH]c(-c3ccc(C)cc3)cc(=O)c2c1 | 4% | 0 | ? | 2% | 2.8µM* | 22%
COc1cccc2sc(Nc3nc(-c4ccccn4)cs3)nc12 | -2% | / | 25µM* | / | / | -56%
Cc1ccc2nc(-c3ccc(NC(=O)COC(=O)c4ccc([N+](=O)[O-])o4)cc3)sc2c1 | 6% | -1 | 3.2µM* | -1% | -4% | -18%
Cc1ccc2nc(-c3ccc(NC(=O)COC(=O)c4ccc(Br)o4)cc3)sc2c1 | 0% | 3 | / | 5% | -7% | -30%
O=C(C[n+]1cc(Br)cc2ccccc21)c1ccccc1 | / | -2 | -58% | 40µM* | ? | 14%
CC(C)(O)C#Cc1ccc(C(=O)NCCN2Cc3ccccc3OC(c3ccccc3F)C2)o1 (stereo not drawn) | / | / | / | -1% | / | /
O=[N+]([O-])c1ccc(/C=C/C2=NN(c3ccccc3)C(c3ccco3)C2)o1 (stereo not drawn) | 13µM* | -7 | ? | 14% | 1% | 3%
COc1cc(NC(=O)c2noc3c2CCC3)c(OC)cc1Cl | -1% | -2 | -9% | 11µM* | 8% | 1%
COc1cc(CN2CCC3(CCC(CNC(=O)c4ccccc4)O3)CC2)cc(OC)c1 (stereo not drawn) | / | / | / | 0% | / | /
Cc1c(C(=O)Nc2nnc(C3CC3)s2)oc2ccccc12 | / | 1 | 5µM* | 4% | 4% | /
COc1ccccc1-c1ccnc(-n2ncc(C(=O)NCC3(N4CCOCC4)CCCC3)c2C)n1 | / | / | / | 1% | / | /
Clc1ccccc1C1CC(c2ccccc2)=Nc2ccccc2N1 (stereo not drawn) | 0% | 77* | 10% | 18% | -11% | -49%
O=C(NC[C@@H]1CCCN2CCCC[C@H]12)c1cnn(-c2nccc(-c3cc4ccccc4o3)n2)c1C1CC1 | / | / | / | 1% | / | /
Cc1cc2nn(-c3ccccc3)nc2cc1NC(=O)c1cccs1 | 0% | 0 | 6% | 13%[38.3 µM] | -9% | -35%
CC(=O)Nc1cc2nn(-c3ccccc3)nc2cc1C | / | -2 | / | 0% | 5µM* | -24%
CO[C@H]1[C@H](NC(=O)c2ccco2)c2ccccc2C12CCN(Cc1cnn(-c3ccccc3)c1)CC2 | / | / | / | 0% | / | /
COc1cccc(CNC(=O)c2c(OC)cc(=O)n3c2CCN(C(=O)c2ccc(C)nc2)CC3)c1 | / | / | / | 0% | / | /
CCn1cc([N+](=O)[O-])c(C(=O)Nc2nc(-c3ccc(C)cc3)c(C)s2)n1 | -2% | 0 | 0% | -2% | -4% | -3%
CCn1cc([N+](=O)[O-])c(C(=O)Nc2nc(-c3ccc(C)c(C)c3)c(C)s2)n1 | 3% | -1 | -6% | 2.8µM* | 7% | -4%
Cc1cnc(-n2ncc(C(=O)NCc3ccncc3)c2C2CC2)nc1-c1cccs1 | / | / | / | 1% | / | /
Cc1ncc2c(c1CNC(=O)/C=C/c1cccs1)CCN(C(=O)c1cc(C(C)C)on1)C2 | / | / | / | -1% | / | /
Cc1cccc(Oc2nc3c(C)cccn3c(=O)c2/C=C(\C#N)c2nc3ccccc3[nH]2)c1 | 7.1µM* | / | / | 8% | / | 4%
CC(C)(C)c1ccc(Oc2nc3ccccn3c(=O)c2/C=C(\C#N)c2nc3ccccc3[nH]2)cc1 | 25µM* | / | / | 28µM* | / | 2%
Cc1cccn2c(=O)c(/C=C(\C#N)c3nc4ccccc4[nH]3)c(Oc3ccc(C(C)(C)C)cc3)nc12 | ? | / | / | ? | / | -1%
Cc1cccc(Oc2nc3c(C)cccn3c(=O)c2/C=C(\C#N)c2nc3ccccc3s2)c1 | -1% | / | / | 9% | / | -17%
COc1ccc(-n2c(CNC(=O)c3ccc(OC)cc3OC)nnc2SC)cc1 | / | / | / | -1% | / | /
CCCCCCc1cc2cc(-c3nnc(-c4ccccc4O)o3)c(=O)oc2cc1O | 6.3µM* | 0 | -14% | ? | 4% | -1%
O=C(O)c1ccc2oc(=O)c(S(=O)(=O)c3ccc(F)cc3)cc2c1 | / | -4 | 2% | -1% | 1% | -1%

3 of the entries above in order of their number in uPA surface inh, smallest number first:
Compound | uPA surface inh
Cc1cc2nn(-c3ccccc3)nc2cc1NC(=O)c1cccs1 | -9%
CCn1cc([N+](=O)[O-])c(C(=O)Nc2nc(-c3ccc(C)cc3)c(C)s2)n1 | -4%
CCCCCCc1cc2cc(-c3nnc(-c4ccccc4O)o3)c(=O)oc2cc1O | 4%

Screens as filed in PubChem BioAssay.
